Experimental data from patent publication US20130060010A1.

Molecular target: extracellular soluble domain of the human EGFR (sEGFR) (human) (UniProt P00533)
Test: SPR (Biacore 3000), 425 immobilised on CM5 chip (about 200 RU), sEGFR injected, 1:1 model with mass transport

Kd: 0.0323 µM
Substance: mAb 425 (murine monoclonal antibody, EMD55900)
